Consider one compound from publication PMC7340475 (Drug Design, Development and Therapy, 2020).

Amino acid sequences for entries named in this document (tags omitted).
UniProt P18089, whole entry: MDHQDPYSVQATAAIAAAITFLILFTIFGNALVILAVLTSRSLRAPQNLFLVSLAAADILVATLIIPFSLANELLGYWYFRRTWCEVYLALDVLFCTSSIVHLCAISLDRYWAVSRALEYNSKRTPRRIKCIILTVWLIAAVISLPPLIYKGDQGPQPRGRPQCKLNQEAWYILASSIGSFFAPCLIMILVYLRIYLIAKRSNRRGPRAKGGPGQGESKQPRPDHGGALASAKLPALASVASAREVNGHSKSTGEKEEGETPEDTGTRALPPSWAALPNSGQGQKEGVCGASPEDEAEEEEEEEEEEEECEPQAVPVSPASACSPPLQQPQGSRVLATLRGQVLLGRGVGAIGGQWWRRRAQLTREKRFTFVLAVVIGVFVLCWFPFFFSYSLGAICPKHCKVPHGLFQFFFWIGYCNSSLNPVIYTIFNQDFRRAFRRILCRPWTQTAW

In this experiment the target is α2B-AR (Homo sapiens, UniProt P18089). The experiment can be described thus: Saturation binding assay of the radioligand. As to conditions: read-out: KD α2B-AR.

Take `Clc1cc(I)cc(Cl)c1NC1=NCCN1` [[^125I]-PIC, [^125I]-paraiodoclonidine]: the dissociation constant Kd came to 0.602 ± 0.081 nM.

As usually defined, the Kd is the constant that tells how readily two partners part at equilibrium.
